According to US11883398B2, “Dipeptidylpeptidase 4 inhibition enhances lymphocyte trafficking, improving both naturally occurring tumor immunity and immunotherapy” (INSTITUT PASTEUR, priority 2015, dated 2024):

What was measured:
[1] = test system: DPP4
Text: WT C57BL/6 CD45.2 Thy1.2 and BALB/c mice were obtained from Charles Rivers, France. WT C57BL/6 CD45.1, Rag2^−/−, Cxcr3^−/−, Ifnar1^−/−Dpp4^+/−, Dpp4^−/−, Cxcl10^−/−, Ccr5^−/−, Pmel-1 Thy-1.1^+Thy-1.1^+, OT1 and FVB-Tg(CAG-luc) mice were bred in our mouse facility. […] Mice were maintained in a specific pathogen free facility and all experimental protocols were approved by the Comité d'Ethique pour l'Expérimentation Animale (The ethics committee for animal experimentation) Paris.

[2] = test system: mCXCL10; settings: CpG-A intravenously, sitagliptin vs control
Protocol: Plates were washed twice with 300 μL of PBS. Blocking was done with BSA 1% (proteinase free, Gibco), in PBS for 2h at room temperature. Plates were washed 3 times with 300 μL of 0.05% Tween-20 in PBS. Tumor and plasma samples were diluted in BSA 1% and incubated for 2h, at room temperature. To obtain a standard curve, and to control for the cross-reactivity of the detection antibody, dilutions of recombinant mCXCL10 (Peprotech) or DPP4-digested mCXCL10(3-77) were incubated in parallel. For detection of mCXCL10(1-77), biotinylated α-mCXCL10(1-77) (AbDSerotec, 0.5 μg/ml, clone AbD17185.1), Streptavidin-HRP (BD Biosciences) and 1-STEP ULTRA TMB (Thermo Scientific) were used.
Enzymatic reactions were stopped with HCL 1N and plates were read with 450 nm in a Lab-systems […] MS (Thermo) reader. […] Detection of mDPP4, mCCL22 and mCXCL12 was done with the DUOSET® ELISA kit (R&D). Detection of mVEGF, mCCL2 and mCCL3 was done with a multiplex kit (Invitrogen).

[3] = test system: DPP8/9 over-expressing cells; settings: Huan et al. 2015; cited from earlier work

N[C@@H](CC(=O)N1CCn2c(nnc2C(F)(F)F)C1)Cc1cc(F)c(F)cc1F [sitagliptin]
DPP4 enzymatic activity in melanoma tumors extracted from mice ([1]; B16F10 tumor homogenates, sitagliptin vs control chow): reduced DPP4 enzymatic activity | inhibition of in vivo DPP4 enzymatic activity ([1]; WT mice, chow containing 1.1% sitagliptin, plasma 24h after initiation of treatment): > 80% | DPP4 activity in the peritoneal cavity ([1]; peritoneal lavage, sitagliptin vs control chow): significantly inhibited | plasma concentration of mCCL3 [2]: not significantly different | plasma concentration of mCCL22 [2]: significant decrease | selectivity for DPP4 over DPP8 and 9 [3]: highly-selective inhibitors of DPP4
